Source: PubChem BioAssay (NCATS)
The list shows a part of the results, in another mix than the full data. Inconclusive results are not listed. Active and inactive are the calls of the source. Unless noted, calls come from the whole dose curve; as a rule, active = well fitted curve in the direction sought with a large enough effect; inconclusive = small, poorly fitted or top-dose-only effect, or another doubt; inactive = no such curve, though single readings can be large; an effect the other way counts as inactive or inconclusive.

Amino acid sequences for entries named in this document (tags omitted).
UniProt Q07343, whole entry: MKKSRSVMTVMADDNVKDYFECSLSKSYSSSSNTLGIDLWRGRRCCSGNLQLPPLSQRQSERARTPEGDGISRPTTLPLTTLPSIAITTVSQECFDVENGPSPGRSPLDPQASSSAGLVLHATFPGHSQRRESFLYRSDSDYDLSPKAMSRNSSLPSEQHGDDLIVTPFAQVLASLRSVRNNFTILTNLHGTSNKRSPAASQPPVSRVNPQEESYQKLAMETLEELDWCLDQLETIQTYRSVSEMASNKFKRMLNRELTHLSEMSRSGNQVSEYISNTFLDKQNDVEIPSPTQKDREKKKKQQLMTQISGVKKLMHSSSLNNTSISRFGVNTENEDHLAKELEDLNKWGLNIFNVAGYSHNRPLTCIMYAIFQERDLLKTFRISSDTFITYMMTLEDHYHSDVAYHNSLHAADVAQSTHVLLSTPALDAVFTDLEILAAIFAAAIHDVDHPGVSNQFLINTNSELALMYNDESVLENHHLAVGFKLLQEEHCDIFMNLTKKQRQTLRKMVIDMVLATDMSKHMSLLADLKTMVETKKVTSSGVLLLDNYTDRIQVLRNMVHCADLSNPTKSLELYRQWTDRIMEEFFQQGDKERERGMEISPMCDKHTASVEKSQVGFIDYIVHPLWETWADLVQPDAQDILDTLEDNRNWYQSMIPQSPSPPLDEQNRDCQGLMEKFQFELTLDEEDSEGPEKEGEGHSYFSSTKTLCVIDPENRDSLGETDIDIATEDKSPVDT

Assays:
[1] = Cell Viability - NIH 3T3 (AID 541); note: nearly all actives have a fitted effect of over 25% in size; note: potency is the fitted concentration of half-maximal effect;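 for activity change, negative = cytotoxicity: plate controls were DMSO alone for no effect and tamoxifen positive control for full effect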
Procedure, shortened: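 Intracellular ATP (CellTiter-Glo luminescence, 20 min at room temperature) measured after 40 hr compound exposure at 37 °C of 1000 NIH 3T3 mouse fibroblasts/well in complete medium; AC50 derived by Hill-equation modelling of qHTS concentration-response curves.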

[2] = Cell Viability - HUV-EC-C (AID 542); details: HUV-EC-C endothelial cell viability, qHTS; at 92.2 µM (top of the series); note: % is set by controls: 0 for no effect and ±100 for the full control effect; nearly all actives have a fitted effect of over 35% in size
Procedure, shortened: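 CellTiter-Glo luminescence measured ATP loss in HUV-EC-C cells (1000/well) after 40 hr compound exposure at 37 °C, in complete culture medium. Concentration-response data were Hill-fitted to give AC50.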

[3] = Cell Viability - SH-SY5Y (AID 544); details: SH-SY5Y neuroblastoma cell viability; at 92.2 µM (top of the series); note: nearly all actives have a fitted effect of over 55% in size
Procedure, shortened: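 Cytotoxicity measured via ATP-dependent luciferase luminescence (CellTiter-Glo) following 40 h, 37 °C exposure of 1500 SH-SY5Y cells per well. Concentration-response data were fitted with the standard Hill equation to give AC50.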

[4] = Cell Viability - Mesenchymal (AID 546); details: mesenchymal cells viability, qHTS; at 91.7 µM (top of the series);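 note: cells exposed to compound for 40 hours before reading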
Procedure, shortened: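 Human renal mesenchymal cells (glomerulus-derived), 1000 cells/well, 5 hr 37 °C pre-incubation; compound 40 hr, 37 °C; CellTiter-Glo, 20 min RT; luminescence; AC50 via Hill equation.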

[5] = Cellular Toxicity (caspase-3) HepG2 (AID 654); details: HepG2 caspase-3 activation, luminescence, 0% = DMSO only, 100% = tamoxifen; at 92.2 µM (top of the series);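 note: cells exposed to compound for 16 hours before reading; 0% = DMSO alone and 100% = caspase signal from 100 µM tamoxifen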
Procedure, shortened: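 Caspase 3/7 activation is measured as a luminescence increase (aminoluciferin substrate) after 16 h compound exposure of human hepatocarcinoma HepG2 cells. AC50 values are Hill fits, scaled between DMSO baseline and 100 uM tamoxifen stimulation.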

[6] = Cellular Toxicity (caspase-3) Jurkat (AID 655); details: Jurkat caspase-3 activation, luminescence, DMSO = 0%, tamoxifen = 100%; at 92.2 µM (top of the series);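 note: cells exposed to compound for 16 h at 37 °C before reading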
Procedure, shortened: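 qHTS in human Jurkat T-cell leukemia line: 16 hr compound treatment at 37 °C, caspase-3/7 activity measured by Caspase-Glo luminescence. AC50 derived from Hill equation.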

[7] = Cellular Toxicity (caspase-3) HUV-EC-C (AID 656); details: HUV-EC-C cells, caspase-3 activation (apoptosis), vehicle = 0, 100 µM tamoxifen = 100%; at 92.2 µM (top of the series)
Procedure, shortened: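 Concentration-dependent caspase 3/7 induction was assessed in HUV-EC-C cells exposed for 16 hours. Data scaled between DMSO and tamoxifen (100 uM) controls.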

[8] = Cellular Toxicity (caspase-3) SHSY5Y (AID 657); details: SH-SY5Y caspase-3 activation, DMSO zero, 10 µM staurosporine = 100%; at 91.7 µM (top of the series);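 note: cells exposed to compound for 16 hours at 37 °C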
Procedure, shortened: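 Readout: caspase-cleaved peptide-aminoluciferin substrate driving luciferase light in SH-SY5Y neuroblastoma cells after 16 h treatment. Response normalized to DMSO and 10 uM staurosporine controls.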

[9] = Cellular Toxicity (caspase-3) BJ (AID 658); details: BJ fibroblasts, luminescence, normalized: DMSO 0%, staurosporine 100%; at 91.7 µM (top of the series)
Procedure, shortened: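 qHTS, BJ fibroblasts, 1000 cells/well; 5 hr preincubation, 16 hr compound, 37 °C; Caspase-Glo 3/7 reagent, 1 hr RT; luminescence. DMSO = 0%, 10 uM staurosporine = 100%. Hill-equation AC50.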

[10] = Cellular Toxicity (caspase-3) MRC-5 (AID 659); details: MRC-5 cells, luminescence, normalized: DMSO 0%, 10 µM staurosporine 100%; at 91.7 µM (top of the series)
Procedure, shortened: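 MRC-5 fibroblasts, 1500/well; 16 h cpd, 37 °C; Caspase-Glo 3/7, 1 h RT; lumi read. Norm: DMSO = 0%, 10 uM staurosporine = 100%. Hill-fit AC50 from qHTS conc-response.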

[11] = Cellular Toxicity (caspase-3) Mesangial (AID 660); details: mesangial cells, normalized: DMSO 0%, 100 µM tamoxifen 100%; at 91.7 µM (top of the series);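 note: combined caspase 3 and 7 activity read by Caspase-Glo luminescence; cells exposed to compound for 16 h before the caspase read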
Procedure, shortened: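 Caspase 3/7 activation measured by Caspase-Glo 3/7 luminescence (20 min, room temperature) following 16 h exposure of mesangial cells (1000/well); AC50 from Hill-equation fit, normalized to DMSO and 100 uM tamoxifen.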

[12] = Cellular Toxicity (caspase-3) SK-N-SH (AID 661); details: SK-N-SH caspase-3 activation, qHTS, DMSO as zero, staurosporine as full; at 91.7 µM (top of the series)
Procedure, shortened: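 Caspase 3/7 activation was read by luminogenic substrate cleavage after 16 hour treatment of SK-N-SH cells. Signal was scaled between DMSO and 10 uM staurosporine, and concentration-response data were fitted with the Hill equation for AC50.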

[13] = Cellular Toxicity (caspase-3) H-4-II-E (AID 663); details: H-4-II-E rat hepatoma, scaled: DMSO 0%, 100 µM tamoxifen 100%; at 92.2 µM (top of the series);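 note: cells exposed to compound for 16 hr before readout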
Procedure, shortened: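 H-4-II-E rat hepatoma, 1500 cells/well, 5 hr settle at 37 °C; compound 16 hr, 37 °C, complete medium; Caspase-Glo 3/7, 20 min RT; luminescence. DMSO = 0%, 100 uM tamoxifen = 100%; Hill-equation AC50.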

[14] = Cell Viability - N2a (AID 540); details: N2a mouse neuroblastoma cell viability; at 92.2 µM (top of the series);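 note: plate controls were DMSO alone for no effect and tamoxifen control for full effect; nearly all actives have a fitted effect of over 45% in size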
Procedure, shortened: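 CellTiter-Glo ATP luminescence, read 20 min after reagent at room temperature, reported viability following 40 h compound treatment at 37 °C. N2a mouse neuroblastoma cells seeded 1500/well; Hill equation gave AC50.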

[15] = Cell Viability - Renal Proximal Tubule (AID 545); details: renal proximal tubule cells viability, primary cells of rat origin; at 91.7 µM (top of the series); note: nearly all actives have a fitted effect of over 40% in size
Procedure, shortened: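 In this qHTS format, normal rat kidney-derived proximal tubule cells in complete culture medium receive compound titrations, then sit 40 hours at 37 °C before luciferase-based ATP quantitation; potency is reported as AC50 from concentration-response curves.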

[16] = Cell Viability - H-4-II-E (AID 543); details: H-4-II-E rat hepatoma viability; at 92.2 µM (top of the series); note: % is set by controls: 0 for no effect and ±100 for the full control effect; nearly all actives have a fitted effect of over 35% in size
Procedure, shortened: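 CellTiter-Glo luminescence (intracellular ATP) measured after 40 h compound exposure at 37 °C in H-4-II-E rat hepatoma cells seeded at 1500/well. Values are AC50s fitted with the standard Hill equation.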

[17] = AP1 Signaling Pathway (AID 357; active = well fitted curve in either direction with a large enough effect, not every such curve was filed as active;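 note: ME-180 reporter cells stimulated with EGF at its EC50 level; % is set by controls: 0 for no effect and ±100 for the full control effect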); details: ME-180 AP-1-bla reporter, EGF-induced, beta-lactamase ratio, 5 h; at 7.69 µM (top of the series) unless noted
Procedure, shortened: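 Beta-lactamase reporter under AP-1 response element, ME-180 background. Stimulus: EC50 EGF. Compound exposure 5 h, 37 °C. Detection: CCF4, 2.5 h RT, 460/530 nm. Values: AC50 from titration.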

[18] = NFAT Signaling Pathway (AID 444; active = well fitted curve in either direction with a large enough effect, not every such curve was filed as active;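 note: carbachol stimulus at about its EC50 of 1 µM final; % is set by controls: 0 for no effect and ±100 for the full control effect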); details: Jurkat NFAT-bla M1, carbachol, beta-lactamase ratio, 5 h; at 7.69 µM (top of the series) unless noted
Procedure, shortened: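 Jurkat cells with NFAT-driven β-lactamase reporter and co-expressed M1 receptor, stimulated with carbachol (final 1 uM, ~EC50), compound titration, 5 h at 37 °C. CCF4 loaded 1 h at RT; 460/530 nm ratio gave %activity and AC50.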

[19] = Stat Signaling Pathway (AID 446; active = well fitted curve in either direction with a large enough effect, not every such curve was filed as active;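 note: ME-180 cervical cancer cells given 40 pM IL-6 alongside compound; SIE-controlled beta-lactamase reporter measured as 460/530 nm FRET emission ratio; % is set by controls: 0 for no effect and ±100 for the full control effect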); details: ME-180 (cervical carcinoma) SIE beta-lactamase reporter, IL-6 stimulated, 5 h; at 38 µM (top of the series) unless noted
Procedure, shortened: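 Emission at 460 and 530 nm (excitation 405 nm) reports SIE-controlled beta-lactamase in ME-180 cells. Cells received compound with 40 pM IL-6 for 5 hrs at 37 C; data scaled between 300 pM IL-6 and 125 nM JAK-inhibitor controls.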

[20] = target: 3',5'-cyclic-AMP phosphodiesterase 4B (Homo sapiens) (UniProt Q07343); assay: qHTS Assay for Inhibitors of PDE-IV (AID 607; active = well fitted activation curve with a large enough effect in the main read-out, with a control signal flat, not every such curve was filed as active; note: % of control where 0% means no effect); details: HEK293 ACTOne CNG channel cells, membrane potential fluorescence; at 22.9 µM (top of the series)
Procedure, shortened: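 The readout is membrane depolarisation from a cAMP-sensing CNG channel, detected with a potential dye at ex 535/em 590. Cells were HEK293-derived (endogenous PDE-IV) at 1000 cells/well, titrated up to 22.9 uM final.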

Row | SMILES | Potency [1] | activity change, negative = cytotoxicity [2] | viability change, negative = cytotoxic [3] | activity change, negative = cytotoxicity [4] | caspase-3 activation [5] | caspase-3 activation [6] | caspase-3 activation [7] | caspase-3 activation [8] | caspase-3 activation [9] | caspase-3 activation [10] | caspase-3 activation [11] | caspase-3 activation [12] | caspase-3 activation [13] | activity change, negative = cytotoxicity [14] | activity change, negative = cytotoxicity [15] | activity change, negative = cytotoxic [16] | activity change, negative = inhibition [17] | activity change, negative = inhibition [18] | activity, negative = inhibition [19] | activation (PDE inhibition) [20]
1 | Cc1ccc([N+](=O)[O-])c([N+](=O)[O-])c1 | active: 7.94 µM | inactive: -12.3% | inactive: -28.8% | inactive: 0.719% | inactive: 0.321% | inactive: 11.2% | inactive: -6.88% | inactive: -2.18% | inactive: 0.629% | inactive: 1.48% | inactive: -1.17% | inactive: 1.05% | inactive: 0.376% |  |  |  |  |  |  | 
2 | O=[N+]([O-])c1cccc([N+](=O)[O-])c1 |  | inactive: -0.274% | inactive: 5.63% | inactive: 6.62% | inactive: 0.152% | inactive: 0.834% | inactive: -0.599% | inactive: 1.26% | inactive: 0.995% | inactive: 3.35% | inactive: 0.259% | inactive: -0.201% | inactive: -0.891% | inactive: -8.45% | inactive: -2.59% |  |  |  |  | 
3 | CCOP(=O)(CC)OCC | inactive | inactive: 4.55% |  | inactive: 5.08% | inactive: -1% | inactive: 0.234% | inactive: 2.41% | inactive: -3% | inactive: 0.582% | inactive: 0.0114% | inactive: -0.688% | inactive: 1.06% | inactive: 1.71% | inactive: 0.755% | inactive: -7.44% | inactive: 1.52% |  |  |  | 
4 | O=[N+]([O-])[O-].[NH4+] | inactive | inactive: 1.25% | inactive: -12.5% | inactive: -5.61% | inactive: 1.24% | inactive: -0.993% | inactive: 0.542% | inactive: 1.36% | inactive: -0.785% | inactive: 1.59% | inactive: 0.97% | inactive: -1.25% | inactive: 0.41% | inactive: -0.432% | inactive: -0.846% | inactive: -6.43% |  |  |  | 
5 | N#[O+].[C-]#N.[C-]#N.[C-]#N.[C-]#N.[C-]#N.[Fe+2].[Na+].[Na+] |  |  |  |  |  |  |  |  |  |  |  |  |  |  |  |  | inactive: 17.9% [at 38 µM] | inactive: 7.16% [at 38 µM] | inactive: 2.88% | inactive: -1.12%
6 | [NH4+].[O-][Cl+3]([O-])([O-])[O-] | inactive | inactive: 7.14% | inactive: 8.76% | inactive: -6.63% | inactive: 0.4% | inactive: -0.48% | inactive: -1.51% | inactive: -3.2% | inactive: -1.76% | inactive: -1.35% | inactive: 0.346% | inactive: 1.09% | inactive: 0.907% | inactive: -0.281% | inactive: -1.65% | inactive: -2.5% |  |  |  | 
